Compound activity: PubChem BioAssay, National Center for Advancing Translational Sciences (NCATS)
ClpP mod: qHTS Assay for Activators of ClpP; ATP-dependent Clp protease proteolytic subunit (Bacillus subtilis (strain 168)), P80244; purified B. subtilis ClpP, FRET peptide cleavage, 20 min; Potency, µM (doses to about 57.5 µM), for the others: top-dose activity change, negative = active; hit rate 1.9% among 340,000; active = well fitted falling curve with a large enough effect; inconclusive = small, poorly fitted or top-dose-only effect; inactive = no such curve, though single readings can be large or run the other way; also: potency is read from the fitted curve at half-maximal effect; the source files actives as falling curves though it sought activators and does not explain the sign; nearly all actives have a fitted effect of over 65% in size
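ClpP 10 microg/mL final, pH 8 Tris/KCl buffer with BSA, glycerol, Tween-20; compound pinned in; FRET-FV substrate; RT 20 min; Ex320/Em430; ΔFRET vs ADEP 5.8 microM, DMSO, no enzyme.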
A549 tox-1: kills or reduces viability of A549 cells in Nrf2 counter-screen | A549 ARE-Fluc cells, CellTiter-Fluor viability, 18-24 h | Potency, µM (titrated, usually from 46 µM), for inactives: top-dose activity change, negative = cytotoxicity, actives largely listed as inhibitors | hit rate 0.16% among 390,000 | AID 504648; also: potency is read from the fitted curve at half-maximal effect; % is scaled to controls: 0 for no effect and ±100 for the full control effect
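Cytotoxicity counterscreen: CellTiter-Fluor fluorescence was measured in A549 ARE_Fluc cells after 18-24 h of compound exposure in a concentration series. The subsequent BugLite luminescent read reports ARE-luciferase activity.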
Nrf2 ARE act: activates Nrf2 signaling | hit rate 0.31% among 410,000 | Potency, µM (highest dose often 46.1 µM), for the others: at the top dose activation, usual class: activators | AREc32 ARE-luciferase reporter (MCF7-derived line), luminescence, 24 h; also: potency is read from the fitted curve at half-maximal effect; % of control where 0% means no effect; nearly all actives have a fitted effect of over 65% in size
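Nrf2 activation is followed as ARE-luciferase induction in the AREc32 line after one day of compound treatment; luminescence is read with Steady-Glo.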
p53 reactivation: mutant p53 re-activation in reporter cells. H1299 p53-A138V BP100-luciferase reporter, luminescence, 24 h. Potency, µM (doses to about 92.2 µM), for inactives: at the highest dose activity change, positive = activation, most hits filed as activators. hit rate 0.063% among 320,000; also: potency is read from the fitted curve at half-maximal effect; % of control where 0% means no effect; nearly all actives have a fitted effect of over 45% in size
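H1299 (p53-null), stable ts p53-A138V + BP100-Luc; 1000 cells/well, Opti-MEM/10% FBS; cpd 4 pt, 1:5; 24 h, 37 deg C, 5% CO2; detection reagent 10 min RT; luminescence.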
miR-21 reporter: miR-21 reporter, rising signal | HeLa miR-21 FLuc reporter, luciferase, 48 h | Potency, µM (top dose mostly 38.3 µM), inactives show at the highest dose reporter change, positive = more light | 340,000 tested, under 10 active | AID 2288; active = well fitted rising curve with a large enough effect; inconclusive = small, poorly fitted or top-dose-only effect; inactive = no such curve, though single readings can be large or run the other way;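 note: % of control where 0% means no effect; miR-21 action dims this reporter so a rising signal means less miR-21 action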
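HeLa cells stably expressing CMV-driven firefly luciferase with a downstream miR-21 binding sequence, endogenously expressing miR-21, were treated with titrations (up to about 40uM final) for 48 hours at 37 degree Celsius. Luciferase luminescence was read after lysis.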
Nrf2 block: blocks Nrf2 signaling. A549 ARE-Fluc reporter, luciferase luminescence, 18-24 h. Potency, µM (titrated, usually from 46 µM), for inactives: at the top dose activity change, negative = inhibition, most hits filed as inhibitors. hit rate 2.1% among 360,000; also: potency is read from the fitted curve at half-maximal effect; % is scaled to controls: 0 for no effect and ±100 for the full control effect; nearly all actives have a fitted effect of over 60% in size
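Nrf2 activity is the BugLite luminescence, read 15 min after reagent at room temperature, following CellTiter-Fluor cytotoxicity readout (30 min, 37C). Compound titrations were applied for 18-24 h to 5000 A549 ARE_Fluc cells/well in 5% FBS OPTI-MEM.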
FLuc counter 3: blocks purified firefly luciferase in Nrf2 counterscreen. shares compounds with Nrf2 block. purified firefly luciferase, luminescence inhibition. Potency, µM (titrated, usually from 57.5 µM), without a hit: at the top dose activity change, negative = inhibition, actives largely listed as inhibitors. hit rate 4% among 1,400. AID 720522; also: potency is read from the fitted curve at half-maximal effect; % is scaled to controls: 0 for no effect and ±100 for the full control effect; nearly all actives have a fitted effect of over 65% in size
A549 tox-2: A549 cytotoxicity, Nrf2 inhibitor counterscreen | Potency, µM (highest dose often 46.1 µM), for inactives: at the top dose activity change, negative = cytotoxicity, actives largely listed as inhibitors | shares compounds with Nrf2 block | hit rate 2% among 1,400 | A549 ARE-Fluc cells, cytotoxicity counterscreen;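 also: potency is read from the fitted curve at half-maximal effect; cells exposed to compounds for 18 to 24 hours; % is scaled to controls: 0 for no effect and ±100 for the full control effect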
Nrf2 ARE inh: Nrf2 inhibition confirmed, A549 ARE-luciferase; hit rate 74% among 1,400; A549 ARE-firefly luciferase reporter, luminescence; Potency, µM (series often up to 46.1 µM), for inactives: at the highest dose activity change, negative = inhibition, actives largely listed as inhibitors; shares compounds with Nrf2 block; also: potency is read from the fitted curve at half-maximal effect; % is scaled to controls: 0 for no effect and ±100 for the full control effect; nearly all actives have a fitted effect of over 65% in size
Starred values were filed as active, the others as inactive; ? = inconclusive; nt = no result given; [ ] = another dose, or the depositor's remark. The list is not random: actives were taken first. Their share in the collection is about 3.7%. Unless noted, calls follow the shape of the dose curve; as a rule, active = well fitted curve in the direction sought with a large enough effect; inconclusive = small, poorly fitted or top-dose-only effect, or another doubt; inactive = no such curve, though single readings can be large; an effect the other way counts as inactive or inconclusive.

| Structure | miR-21 reporter | Nrf2 ARE act | ClpP mod | A549 tox-2 | Nrf2 block | A549 tox-1 | FLuc counter 3 | p53 reactivation | Nrf2 ARE inh |
| --- | --- | --- | --- | --- | --- | --- | --- | --- | --- |
| COc1ccccc1-c1noc(CCC(=O)N2CCN(c3cc(C)ccc3C)CC2)n1 | nt | 4% | -2% | 0% | 4.6µM* | ? | 3% | 6% | -25% |
| COc1ccc(-c2noc(CCCCC(=O)N3CCN(c4cc(C)ccc4C)CC3)n2)cc1 | nt | -1% | -3% | -9% | 3.7µM* | -22% | -21% | 4% | 7.3µM* |
| COc1ccc(-c2noc(CCCC(=O)N3CCN(c4cc(C)ccc4C)CC3)n2)cc1 | nt | 4% | 1% | nt | ? | -6% | nt | ? | nt |
| NC(=O)c1ccccc1NC(=O)C1CCCN(c2ncnc3onc(-c4ccc(F)cc4)c23)C1 (stereo not given) | 2% | 5% | -9% | nt | ? | -9% | nt | nt | nt |
| Cc1ccc(Cl)cc1N1CCN(C(=O)c2cc3c(=O)n(C)c4ccccc4c3n2C)CC1 | 1% | 0% | 1% | -22% | 4.1µM* | -18% | 4% | -2% | 6.5µM* |
| O=C(COc1ccccc1Cl)NCCNC(=O)c1cccnc1 | -1% | 0% | nt | nt | -10% | 4% | nt | 0% | nt |
| O=C(COc1ccccc1Cl)NCCCNC(=O)c1cccnc1 | ? | -3% | nt | -21% | 3.7µM* | 2% | -1% | -1% | 9.2µM* |
| Nc1c(S(=O)(=O)c2ccccc2)c2nc3ccccc3nc2n1/N=C/c1ccco1 | -3% | 0% | 11µM* | -25% | 5.8µM* | -19% | ? | -2% | 2.1µM* |
| Cc1cnc(-c2nc3ccccc3n2C(C)C(=O)Nc2c(C)cccc2C)cn1 (stereo not given) | nt | nt | -23% | nt | nt | nt | nt | nt | nt |
| CCCN1C(=O)c2[nH]nc(-c3ccc(F)cc3)c2C1c1ccc(O)c(OCC)c1 (stereo not given) | -3% | 4% | 0% | nt | -13% | 0% | nt | nt | nt |

The final 2 entries of the part before are carried over, then new ones follow:
| Structure | miR-21 reporter | Nrf2 ARE act | ClpP mod | A549 tox-2 | Nrf2 block | A549 tox-1 | FLuc counter 3 | p53 reactivation | Nrf2 ARE inh |
| --- | --- | --- | --- | --- | --- | --- | --- | --- | --- |
| Cc1cnc(-c2nc3ccccc3n2C(C)C(=O)Nc2c(C)cccc2C)cn1 (stereo not given) | nt | nt | -23% | nt | nt | nt | nt | nt | nt |
| CCCN1C(=O)c2[nH]nc(-c3ccc(F)cc3)c2C1c1ccc(O)c(OCC)c1 (stereo not given) | -3% | 4% | 0% | nt | -13% | 0% | nt | nt | nt |
| Cc1cc(C)cc(NS(=O)(=O)c2ccc3c(c2)c(=O)n(C)c(=O)n3C)c1 | ? | -1% | 1% | -13% | 8.2µM* | -22% | 2% | -10% | 7.3µM* |
| Cn1c(=O)c2cc(S(=O)(=O)Nc3cc(C(=O)O)cc(C(=O)O)c3)ccc2n(C)c1=O | 0% | 0% | -3% | nt | 5% | 5% | nt | -2% | nt |
| COc1ccc(-c2cc(C(=O)Oc3cccc(C)c3C)c3ccccc3n2)cc1 | -17% | 0% | 4% | nt | -3% | 10% | nt | nt | nt |
| Cc1cc(Cl)c(S(=O)(=O)N2CCSCC2)cc1OCC(=O)NC1CCCCC1 | 15% | 2% | -2% | -24% | 6.5µM* | ? | -1% | 2% | 4.6µM* |
| Cc1cc(Cl)c(S(N)(=O)=O)cc1OCC(=O)NC1CCCCC1 | -4% | 0% | -1% | nt | -4% | 3% | nt | 12% | nt |
| Cc1cc(Cl)c(S(=O)(=O)NC2CCCC2)cc1OCC(=O)NC1CCCCC1 | 25% | 0% | 0% | -13% | 6.5µM* | -30% | 3% | -1% | 7.3µM* |
| O=C(CCN1C(=O)c2ccccc2Sc2ncccc21)Nc1ccc(F)cc1F | -1% | 0% | 1% | nt | 14% | -2% | nt | nt | nt |
| CCOC(=O)CSc1nc2cc3c(cc2c(=O)n1Cc1ccc(C(=O)NCCc2ccc(OC)c(OC)c2)cc1)OCO3 | 25% | 0% | -2% | nt | nt | 6% | nt | nt | nt |
| COc1ccc(CCNC(=O)CCc2c(C)c3cc4c(C)c(C)oc4cc3oc2=O)cc1OC | -1% | 3% | -23% | nt | 6% | -1% | nt | nt | nt |
| CCOC(=O)c1ccc(Nc2nc3nonc3nc2Nc2cccc(C)c2C)cc1 | ? | 0% | 1% | ? | 2.3µM* | ? | 15µM* | nt | 5.8µM* |

(further entries)
| Structure | miR-21 reporter | Nrf2 ARE act | ClpP mod | A549 tox-2 | Nrf2 block | A549 tox-1 | FLuc counter 3 | p53 reactivation | Nrf2 ARE inh |
| --- | --- | --- | --- | --- | --- | --- | --- | --- | --- |
| Cc1nn(Cc2ccc(Cl)cc2)c(C)c1NC(=O)c1cc(-c2ccc3c(c2)OCO3)on1 | 19% | 6% | -3% | -10% | 4.1µM* | ? | -2% | -36% | 9.2µM* |
| COc1ccc(NC(=O)Cn2c(=O)n(-c3cccc(C)c3)c(=O)c3c2c2cc(C)ccc2n3C)cc1OC | -5% | -1% | 4% | nt | -13%[9.27 µM] | 0% | nt | nt | nt |
| O=C(/C=C/c1ccccc1)NC(NC(=S)Nc1ccc(Cl)cc1)C(Cl)(Cl)Cl (stereo not given) | ? | 3% | 0% | ? | 6.5µM* | ? | ? | -8% | 5.2µM* |
| O=C(O)CCSc1nc2ccccc2n1-c1ccccc1 | -24% | 0% | nt | 3% | 5.8µM* | -3% | -1% | -3% | 5.8µM* |
| CC(C)N(C(=O)CSc1nc2ccccc2n1-c1ccccc1)C(C)C | -1% | 1% | 1% | nt | -20% | -14% | nt | -6% | nt |
| O=C(COC(=O)c1ccc[nH]c1=O)Nc1ccc(N2CCCCC2)cc1 | nt | -3% | 1% | -1% | 2.3µM* | -1% | 11µM* | -18% | 4.1µM* |
| O=C(NC1CCCCC1)c1ccc2ccccc2c1 | nt | 4% | -14% | nt | nt | nt | nt | nt | nt |
| Cc1cc2ccccc2c[n+]1C1CCCCC1 | nt | nt | 4% | -8% | nt | nt | 0% | nt | 1.3µM* |
| CN1CCC(C)(C(=O)Nc2cccc(Oc3ccccc3)c2)C1 (stereo not given) | nt | 1% | 2% | nt | nt | nt | nt | nt | nt |
| Oc1ccccc1-c1nc(NC2CCCC2)c2ccccc2n1 | 14% | 4% | 0% | nt | -16% | -6% | nt | 13% | nt |

(list continues)
| Structure | miR-21 reporter | Nrf2 ARE act | ClpP mod | A549 tox-2 | Nrf2 block | A549 tox-1 | FLuc counter 3 | p53 reactivation | Nrf2 ARE inh |
| --- | --- | --- | --- | --- | --- | --- | --- | --- | --- |
| c1ccc(-c2nnc(-c3ccccn3)nc2NC2CCCCC2)cc1 | 14% | 5% | -2% | ? | 1.8µM* | ? | -14% | 35µM* | 4.1µM* |
| O=C(N/N=C/c1sc(N2CCOCC2)nc1-c1ccccc1)c1cccc(S(=O)(=O)N2CCCC2)c1 | ? | 3% | nt | -17% | 2.6µM* | ? | 2% | -3% | 23µM* |
| O=C(N/N=C/c1sc(N2CCOCC2)nc1-c1ccccc1)c1ccc(O)cc1 | 0% | 3% | nt | nt | -8% | -18% | nt | -6% | nt |
| O=c1c2cnn(-c3ccccc3)c2nc(-c2ccco2)n1-c1ccccc1 | 19% | 3% | -3% | -12% | 9.2µM* | -21% | -22% | -21% | 18µM* |
| O=c1oc(-c2ccco2)nc2c1cnn2-c1ccccc1 | -2% | 0% | ? | nt | nt | 1% | nt | 4% | nt |

Single entries from the entries so far.
Nrf2 ARE inh, O=c1c2cnn(-c3ccccc3)c2nc(-c2ccco2)n1-c1ccccc1 reads 18µM*
Nrf2 block, O=C(N/N=C/c1sc(N2CCOCC2)nc1-c1ccccc1)c1ccc(O)cc1 reads -8%
FLuc counter 3, c1ccc(-c2nnc(-c3ccccn3)nc2NC2CCCCC2)cc1 reads -14%
FLuc counter 3, O=C(N/N=C/c1sc(N2CCOCC2)nc1-c1ccccc1)c1cccc(S(=O)(=O)N2CCCC2)c1 reads 2%
